The list shows a part of the results.

The test system of the assay is A. baumannii ATCC 17978. The assay can be described thus: relative growth (fraction of control); higher = less inhibition. Conditions: 50 µM.
`Nc1c2c(nc3ccccc13)CCCC2`: the relative growth is 0.791. Regarding `CN1CC(O)C2=C/C(=N/NC(N)=O)C(=O)C=C21` (centres undefined), the relative growth came to 0.995.

The compound `CC(O)C(=O)O.CCOc1ccc2nc3cc(N)ccc3c(N)c2c1` came in with a relative growth of 0.924.

With `CNC[C@H](O)[C@@H](O)[C@H](O)[C@H](O)CO.Cc1c(Nc2ncccc2C(=O)O)cccc1C(F)(F)F`, the relative growth was determined as 0.873.

On to `O=c1cc(-c2ccccc2)oc2cc(O)cc(O)c12`, for which the relative growth came to 1.02.

With `Cn1c(=O)c2c(ncn2CCCN)n(C)c1=O`, the relative growth was 0.928. The same measure for `COc1ccccc1S(=O)(=O)N[C@H]1CC[C@@H](CCNC(=O)C2CC2)O[C@@H]1CO`: 1.11; for `C=CCOC(=O)[C@@H]1[C@H]2C(=O)O[C@H](c3ccccc3)[C@H](c3ccccc3)N2[C@H](c2ccc(OCCOC(=O)[C@H]3C[C@H]4C(=O)N[C@@H](CCCC[N+](C)(C)C)C(=O)N4[C@H]3c3cccc(OCCO)c3)cc2)[C@@]12C(=O)Nc1ccc(I)cc12`: 1.09.

The compound `CC(C)(C)C(=O)C(Oc1ccc(Cl)cc1)n1ccnc1` (centres undefined) had a relative growth of 1.04. `O=C(C[C@@H]1C=C[C@@H](NS(=O)(=O)c2ccc(F)cc2)[C@@H](CO)O1)N1CCC(Cc2ccccc2)CC1` registered a relative growth of 0.929. Regarding `O=C(C[C@@H]1CC[C@H]2[C@@H](COC[C@@H](O)CN2S(=O)(=O)c2ccc(Cl)cc2)O1)N[C@H]1CCN(Cc2ccccc2)C1`, the relative growth was 0.954. In the case of `Clc1ccc2sc(Sc3ccccc3)nc2c1`, the relative growth was 0.984.

Compound `Cc1c(C)n2c3c(=O)n(C)c(=O)n(C)c3nc2n1CCO` displayed a relative growth of 1.01. In turn, `O=C(O)c1cccc(C(=O)O)n1` displayed a relative growth of 1.02.

Compound `CC(C)=CCC/C(C)=C/CC/C(C)=C/CO` [trans,trans-FARNESOL] showed a relative growth of 0.587. The value for `Nc1nc(NC2CC2)c2ncn(C3C=C[C@@H](CO)C3)c2n1.O=S(=O)(O)O` (some centres undefined) was 1.08. In the case of `C[C@@H]1CC[C@H]2[C@@H](C)C(O)O[C@@H]3O[C@]4(C)CC[C@@H]1[C@]32OO4` (some centres undefined), the relative growth amounted to 0.878.

For the compound `O=C1CN(/N=C/c2ccc([N+](=O)[O-])o2)C(=O)N1`, the relative growth was 0.964. The compound `COc1cccc(S(=O)(=O)Nc2ccc3c(c2)OC[C@H](C)N(C(=O)Cc2cccnc2)C[C@H](C)[C@H](OC)CN(C)C3=O)c1` came in with a relative growth of 1.02.

As to `COc1cccc(S(=O)(=O)N[C@@H]2C=C[C@@H](CC(=O)NC3CCC3)O[C@H]2CO)c1`, the relative growth is 1.03. As for `Cc1ccccc1OCC(O)CO` (centres undefined), the relative growth stood at 1.07. The compound `O=C(C[C@H]1CC[C@@H]2[C@H](COC[C@H](O)CN2S(=O)(=O)c2cccc(Cl)c2)O1)NCCCN1CCOCC1` gave a relative growth of 0.826. Regarding `COC(=O)CCc1c(C)[nH]c(=S)[nH]c1=O`, the relative growth turned out to be 1.1.

With `CCCNC(=O)N1C[C@H](O)COC[C@H]2O[C@H](CC(=O)N3CCOCC3)CC[C@@H]21`, the relative growth amounted to 1.12. `COc1ccc(CNC(=S)NN)cc1` showed a relative growth of 0.895. With `CN(C)CCOC(C)(c1ccccc1)c1ccccn1.O=C(O)CCC(=O)O` (centres undefined), the relative growth is 1.2. With `O=C(O)[C@@H]1CC(=O)N(c2ccc3c(c2)OCO3)C1`, the relative growth turned out to be 1.08.

The compound `NCC[C@H]1CC[C@@H](NC(=O)Cc2ccncc2)[C@@H](CO)O1` returned a relative growth of 0.917. Consider `O=C(O)c1cc(-n2cnnn2)ccc1O`, for which the relative growth worked out at 0.972. With `CN(C)CCCCNC(=O)[C@@H]1C[C@@H]2C(=O)N[C@@H](CCCCN)C(=O)N2[C@@H]1c1ccc(O)cc1`, the relative growth was 1.12.

As to `CC(=O)c1ccc2ccccc2c1O`, the relative growth was determined as 0.977.

As for `CO[C@@H]1CN(C)C(=O)c2ccc(NC(C)=O)cc2OC[C@H](C)N(S(=O)(=O)c2cn(C)cn2)C[C@H]1C`, the relative growth came to 1.07. For the compound `CC(=O)OCC(=O)[C@@]1(O)CCC2C3CCC4=CC(=O)CC[C@]4(C)C3C(=O)C[C@@]21C` (some centres undefined), the relative growth was determined as 0.985. In the case of `CC1(C)C(C(=O)O)N2C(=O)C[C@H]2S1(=O)=O` (some centres undefined), the relative growth was 0.166. `O=C(Cc1ccncc1)NCC[C@H]1CC[C@@H](NC(=O)C2CCOCC2)[C@@H](CO)O1` registered a relative growth of 1.03. `CO[C@H]1CN(C)C(=O)c2cc(NC(=O)Nc3ccccc3F)ccc2OC[C@@H](C)N(Cc2ccccc2C(=O)O)C[C@@H]1C` registered a relative growth of 0.987. `C[C@H](CO)N1C[C@H](C)[C@@H](CN(C)S(=O)(=O)c2ccccc2F)Oc2cc(C#Cc3cccc(F)c3)ccc2S1(=O)=O` gave a relative growth of 1.11. `COC[C@H]1CN(C(=O)c2cccc(OC)c2)N1` had a relative growth of 1. For `C[C@@H]1CN([C@H](C)CO)C(=O)c2cc(Br)cnc2O[C@H]1CN(C)C(=O)Nc1ccc(F)cc1`, the relative growth turned out to be 0.887. Regarding `O=C(CN1CCOCC1)NCC[C@H]1CC[C@H](NC(=O)c2ccccc2F)[C@H](CO)O1`, the relative growth is 0.971.

On to `C[C@@H]1CN([C@@H](C)CO)S(=O)(=O)c2ccc(-c3ccc(F)cc3)cc2O[C@H]1CN(C)S(C)(=O)=O`, for which the relative growth was 0.888. The value for `C[C@H]1CCCN(C(=O)CCNS(=O)(=O)c2ccc3c(c2)c(=O)n(C)c(=O)n3C)C1` was 0.983; that for `COc1ccc(S(=O)(=O)N2C[C@@H](O)COC[C@@H]3O[C@H](CC(=O)NCc4ccc(Cl)c(Cl)c4)CC[C@H]32)cc1` was 0.877; that for `CCOC(=O)c1c(C)c(Cl)c(O)c(Cl)c1O` was 1.04.

The compound `CCNC(=O)CC[C@H](N)C(=O)[O-].[K+]` yielded a relative growth of 1. Compound `C1CCN2C[C@@H]3C[C@H](CN4CCCC[C@@H]34)[C@H]2C1.O=S(=O)(O)O` came in with a relative growth of 1. As for `COc1ccc(C#Cc2ccc3c(c2)O[C@H](CN(C)S(=O)(=O)c2ccccc2F)[C@H](C)CN([C@H](C)CO)S3(=O)=O)cc1`, the relative growth was found to be 1.12.

In turn, `CO[C@@H]1O[C@H](C(=O)O)[C@@H](O)[C@H](O)[C@@H]1O.CO[C@H]1[C@H](O)[C@H](O)[C@H](C)O[C@H]1C(=O)O` [ALGINIC ACID [Mol Wt ~200,000; monomers shown]] yielded a relative growth of 1.14.

In turn, `CCOC(=O)n1ccn(C)c1=S` displayed a relative growth of 1.12. In turn, `O=C(CN1CCOCC1)NCC[C@H]1CC[C@H](NC(=O)c2ccc3c(c2)OCO3)[C@H](CO)O1` returned a relative growth of 0.918.

The compound `COc1cc(O)c2c(c1)C(=O)c1cc(C)cc(O)c1C2=O` had a relative growth of 1.11.

`C[C@H]1CC[C@@]2(OC1)OC1CC3C4CC[C@@H]5C[C@@H](O)CCC5(C)C4CCC3(C)C1[C@@H]2C` (some centres undefined): the relative growth was found to be 1.13. The same measure for `C=CCOC(=O)[C@H]1[C@@H]2C(=O)O[C@@H](c3ccccc3)[C@@H](c3ccccc3)N2[C@@H](c2ccc(OCCOC(=O)[C@H]3C[C@H]4C(=O)N[C@@H](CC(C)C)C(=O)N4[C@H]3c3ccc(O)cc3)cc2)[C@]12C(=O)Nc1ccccc12`: 1.09. `CC(C)CC(NC(=O)C(C)NC(=O)CNC(=O)C(NC=O)C(C)C)C(=O)NC(C)C(=O)NC(C(=O)NC(C(=O)NC(C(=O)NC(Cc1c[nH]c2ccccc12)C(=O)NC(CC(C)C)C(=O)NC(Cc1c[nH]c2ccccc12)C(=O)NC(CC(C)C)C(=O)NC(Cc1c[nH]c2ccccc12)C(=O)NC(CC(C)C)C(=O)NC(Cc1c[nH]c2ccccc12)C(=O)NCCO)C(C)C)C(C)C)C(C)C` (centres undefined) [GRAMICIDIN (gramicidin A shown)] showed a relative growth of 1.14. For the compound `CC(=O)OCC(=O)[C@@]1(OC(C)=O)[C@@H](C)CC2C3C[C@H](F)C4=CC(=O)C=C[C@]4(C)[C@@]3(F)[C@@H](O)C[C@@]21C` (some centres undefined), the relative growth stood at 1.21. In the case of `CO[C@H](CN(C)S(=O)(=O)c1ccc(C)cc1)[C@H](C)CN([C@@H](C)CO)S(=O)(=O)c1cccc(Cl)c1`, the relative growth amounted to 0.722. As for `C=CCN1C(=O)[C@@]2(O[C@@H](CCn3cc([C@H](O)c4ccccc4)nn3)[C@H]([Si](C)(C)c3ccc(OC)cc3)[C@H]2C)c2cc(N3CCOC3=O)ccc21`, the relative growth amounted to 1.1. Consider `O=C(C[C@@H]1CC[C@@H](NS(=O)(=O)c2ccccc2)[C@@H](CO)O1)NCc1ccncn1`, for which the relative growth is 1.03.

As for `Cl.O=C(c1ccc(OCCN2CCCCC2)cc1)c1c(-c2ccc(O)cc2)sc2cc(O)ccc12`, the relative growth was determined as 1. Regarding `O=C(CCCCCNC(=O)OCc1ccc([C@H]2[C@H](C(=O)NCc3ccccc3)c3ccccc3C(=O)N2Cc2ccccc2)cc1)NO`, the relative growth amounted to 0.968. `C=CCN1C(=O)[C@@]2(O[C@@H](CCO)[C@H]([Si](C)(C)c3ccc(OC)cc3)[C@H]2C)c2cc(NC(=O)[C@H](C)O)ccc21`: the relative growth is 0.716.

In turn, `O=C(O)CNc1ccc(C(=O)O)cc1` had a relative growth of 0.854. For `NC(=O)CSCC(=O)Nc1ccccc1F`, the relative growth came to 0.987. In turn, `Cc1cc(NS(=O)(=O)c2ccc(N)cc2)no1` returned a relative growth of 1.06.

The compound `C=C[C@](C)(O)CCC=C(C)C` returned a relative growth of 1.24. The value for `COC(=O)C1=CO[C@@H](O[C@@H]2O[C@H](CO)[C@@H](O)[C@H](O)[C@H]2O)[C@H]2C1C(=O)C[C@@H]2C` (some centres undefined) was 1.13. Consider `NCC[C@@H]1CC[C@H](NC(=O)C2CC2)[C@@H](CO)O1`, for which the relative growth was determined as 1.09. For the compound `O=C(C[C@@H]1CC[C@H]2[C@@H](COC[C@@H](O)CN2C(=O)c2ccc3c(c2)OCO3)O1)NCCN1CCCCC1`, the relative growth was 1.03. `COCCOC(=O)N1C(=O)[C@@]2(c3cc(C#CCC(C(=O)OC)C(=O)OC)ccc31)[C@H](C(=O)N1CCc3cc(OC)c(OC)cc3C1)[C@H]1C(=O)O[C@H](c3ccccc3)[C@H](c3ccccc3)N1[C@@H]2c1ccccc1OCCO` had a relative growth of 1.18. `O=C(c1ccccc1O)N1CCOCC1` had a relative growth of 0.902. `Cc1cccc(C(=O)NN)c1` registered a relative growth of 0.943. `CN1CCN(C(=O)C[C@@H]2C=C[C@H](NC(=O)c3ccc4c(c3)OCO4)[C@@H](CO)O2)CC1` showed a relative growth of 0.99. `Cc1cc(C)c(S(=O)(=O)N2CCO[C@@H]2CNC(=O)C(=O)NCCCN2CCCC2=O)c(C)c1` yielded a relative growth of 0.937. Turning to `CCOC(=O)c1ncn2c1C(=O)OC2(C)C`, the relative growth stood at 1.03.

`COCCNC(=O)C[C@@H]1C[C@@H]2c3cc(NC(=O)COC)ccc3O[C@@H]2[C@H](CO)O1` returned a relative growth of 0.966. The same measure for `C[C@@]1(C2CC2)NC(=O)NC1=O`: 1.12; for `C[C@H]1CN([C@@H](C)CO)S(=O)(=O)c2ccc(C#Cc3ccccn3)cc2O[C@@H]1CN(C)Cc1ccccc1`: 1.01; for `CN(C)Cc1cn(CC[C@H]2CC[C@H](N)[C@@H](CO)O2)nn1`: 0.983. Regarding `CO[C@@H]1CN(C)C(=O)c2cc(NC(=O)Nc3ccccc3F)ccc2OC[C@@H](C)N(Cc2ccccc2C(=O)O)C[C@@H]1C`, the relative growth was found to be 1.13.

For the origin of these results see published antibiotic growth screens (doi:10.1038/s41589-023-01349-8).
